Results published in patent US9604923B2 (H. LEE MOFFITT CANCER CENTER AND RESEARCH INSTITUTE, INC., priority 2006, dated 2017).

Chains of the proteins cited; added tags and fusions are not shown. Residues count along the entry.
UniProt P06239, 127-224 limits assumed: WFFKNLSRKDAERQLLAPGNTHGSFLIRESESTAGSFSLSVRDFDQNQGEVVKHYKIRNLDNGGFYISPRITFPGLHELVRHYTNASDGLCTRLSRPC

Molecular target: Lck-SH2-GST (Homo sapiens, UniProt P06239)
Settings: 30 μM and 100 μM

Cc1ccc(S(=O)(=O)OCC(=O)Nc2ccc(C(=O)O)c(O)c2)cc1 [Compound S3I-201, 2-Hydroxy-4-(2-(tosyloxy)acetamido)benzoic acid]
effect on signal induction (Lck-SH2-GST binding to pTyr peptide EPQpYEEIEL): no effect
